# According to ChEMBL document CHEMBL1132980, “1,2,4-Triazolo[4,3-a]quinoxalin-1-one: a versatile tool for the synthesis of potent and selective adenosine receptor antagonists” (J Med Chem, 2000):
# Tested on: Adenosine receptor A2a (Bos taurus)
# Assay: Binding affinity towards adenosine A2A receptor of bovine striatal membrane in presence of [3H]-CGS- at a concentration of 20 uM
row,inhibition [%],SMILES
1,5.5,O=c1[nH]c2ccccc2n2c(=O)n(-c3ccc(Cl)cc3)nc12
2,18,Cc1ccc(N2CN3C(=N2)C(=O)Nc2ccccc23)cc1
3,70,CC(=O)Nc1nc2ccccc2n2c(=O)n(-c3ccccc3)nc12
4,0,COc1ccc(-n2nc3c(=O)[nH]c4ccccc4n3c2=O)cc1
